# Laboratory results: patent US9180114B2, “Neurodegenerative diseases and methods of modeling” (PRESIDENT AND FELLOWS OF HARVARD COLLEGE, priority 2008, dated 2015)
# Test system: Hb9::GFP human ES cell-derived motor neurons on SOD1G93A glia
# Test: Survival of human ES cell-derived motor neurons co-cultured with SOD1G93A glia treated with prostaglandin D2 receptor antagonists
# Type: cell-based
# Conditions: 10 days of treatment
compound,measurement,value
O=C(O)CCn1c2c(c3ccccc31)C[C@H](NS(=O)(=O)c1ccc(F)cc1)CC2 [BAY-u3405],Hb9::GFP cells remaining (cell death / survival of motor neurons) on SOD1G93A glia,had no effect on promoting survival
